Reference: patent publication US20260258050A1, “IMMUNOMODULATOR” (HITGEN INC., priority 2023, published 2026)

Protein sequences, listed by entry. Tags and fused reporters are not part of them. Residues count along the entry.
UniProt Q16552, 20-155 limits assumed: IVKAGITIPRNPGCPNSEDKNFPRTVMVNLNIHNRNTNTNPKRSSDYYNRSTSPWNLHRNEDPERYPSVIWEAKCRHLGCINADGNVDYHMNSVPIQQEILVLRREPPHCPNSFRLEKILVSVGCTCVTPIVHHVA
UniProt Q16552, 24-155 limits assumed: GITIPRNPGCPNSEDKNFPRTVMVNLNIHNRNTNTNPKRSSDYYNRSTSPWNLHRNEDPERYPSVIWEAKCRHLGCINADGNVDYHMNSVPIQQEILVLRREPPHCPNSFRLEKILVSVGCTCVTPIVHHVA
UniProt Q96PD4, 31-163 limits assumed: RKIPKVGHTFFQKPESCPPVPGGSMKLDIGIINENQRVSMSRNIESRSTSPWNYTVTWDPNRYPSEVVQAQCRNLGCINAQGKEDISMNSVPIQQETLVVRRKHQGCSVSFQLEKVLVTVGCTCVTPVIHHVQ

Key:
Human IL-17A [1] = molecular target: T1, Human IL-17A (Homo sapiens, UniProt Q16552); experiment: IL-17A enzyme-linked immunosorbent assay (competitive ELISA, IL-17A/IL-17Ra receptor-ligand binding); settings: read-out: IC50, inhibitory activity of compounds on human IL-17A, human IL-17A coated plate, human IL-17Ra
Human IL-17AF = Human IL-17AF (Homo sapiens, UniProt Q16552+Q96PD4); experiment: IL-17AF ELISA (competitive ELISA, IL-17AF/IL-17Ra receptor-ligand binding); settings: read-out: IC50, inhibitory activity of compounds on human IL-17AF, human IL-17AF coated plate, human IL-17Ra
Human IL-17A [2] = molecular target: T1, Human IL-17A; experiment: Inhibition of human IL-17A protein-induced GROα/CXCL1 production in HT-29 cells; settings: read-out: Inhibitory IC50 of compounds on HT-29 cell GROα/CXCL1, 30 ng/mL human IL-17A protein, 48 h, GROα in supernatant by ELISA kit

| SMILES | IC50 (Human IL-17A [1]) [nM] | IC50 (Human IL-17AF) [nM] | IC50 (Human IL-17A [2]) [nM] |
| --- | --- | --- | --- |
| Cc1[nH]nc2c1-c1cnc(NC(=O)[C@@H](NC(=O)c3ccnn3C(C)C)C(C3CC3)C3CC3)cc1COCC2 | < 50 | < 100 | < 100 |
| Cc1[nH]nc2c1-c1cnc(NC(=O)[C@@H](NC(=O)OC3CCC3)C(C3CC3)C3CC3)cc1CN(C1CC1)CC2 | < 50 | 100 to 500 | 100 to 500 |
| Cc1[nH]nc2c1-c1cc(F)c(NC(=O)[C@@H](NC(=O)c3ccnn3C(C)C)C(C3CC3)C3CC3)cc1COC(C)(C)C2 | < 50 | 100 to 500 | – |
| Cc1[nH]nc2c1-c1cc(F)c(NC(=O)C(COC(C)(C)C(F)(F)F)NC(=O)c3ccnn3C(C)C)cc1COCC2 (stereo not drawn) | < 50 | – | – |
| Cc1[nH]nc2c1-c1ccc(NC(=O)[C@@H](NC(=O)c3ccnn3C(C)C)C(C3CC3)C3CC3)cc1COCC2 | < 50 | < 100 | < 100 |
| Cc1[nH]nc2c1-c1cc(F)c(NC(=O)[C@@H](NC(=O)c3ccnn3C(C)C(F)F)C(C3CC3)C3CC3)cc1COCC2 (single isomer, unassigned) | 50 to 150 | 100 to 500 | – |
| CCn1nccc1C(=O)NC(C(=O)Nc1ccc2c(c1)COCCc1n[nH]c(C)c1-2)C1CCC(F)(F)CC1 (single isomer, unassigned) | 50 to 150 | – | – |
| Cc1[nH]nc2c1-c1cc(F)c(NC(=O)[C@@H](NC(=O)OC3CC3)C(C3CC3)C3CC3)cc1COCC2 | < 50 | – | – |
| Cc1[nH]nc2c1-c1ccc(NC(=O)[C@@H](NC(=O)c3ccnn3C(C)C)C(C3CC3)C3CC3)cc1CCOC2 | 50 to 150 | – | – |
| Cc1[nH]nc2c1-c1cc(Cl)c(NC(=O)[C@@H](NC(=O)c3ccnn3C(C)C)C(C3CC3)C3CC3)cc1COCC2 | 50 to 150 | – | – |
| Cc1[nH]nc2c1-c1cc(F)c(NC(=O)[C@@H](NC(=O)c3ccnn3C(C)C)C(C3CC3)C3CC3)cc1COC(C)C2 (single isomer, unassigned) | < 50 | 100 to 500 | 100 to 500 |
